# Experimental data taken from PubChem BioAssay AID651704 (Broad Institute, 2012).
# Protein sequences, listed by entry. Tags and fused reporters are not part of them. Lines headed by an entry give the natural chain unless they say otherwise; changes in a name come on top.
# UniProt P42568: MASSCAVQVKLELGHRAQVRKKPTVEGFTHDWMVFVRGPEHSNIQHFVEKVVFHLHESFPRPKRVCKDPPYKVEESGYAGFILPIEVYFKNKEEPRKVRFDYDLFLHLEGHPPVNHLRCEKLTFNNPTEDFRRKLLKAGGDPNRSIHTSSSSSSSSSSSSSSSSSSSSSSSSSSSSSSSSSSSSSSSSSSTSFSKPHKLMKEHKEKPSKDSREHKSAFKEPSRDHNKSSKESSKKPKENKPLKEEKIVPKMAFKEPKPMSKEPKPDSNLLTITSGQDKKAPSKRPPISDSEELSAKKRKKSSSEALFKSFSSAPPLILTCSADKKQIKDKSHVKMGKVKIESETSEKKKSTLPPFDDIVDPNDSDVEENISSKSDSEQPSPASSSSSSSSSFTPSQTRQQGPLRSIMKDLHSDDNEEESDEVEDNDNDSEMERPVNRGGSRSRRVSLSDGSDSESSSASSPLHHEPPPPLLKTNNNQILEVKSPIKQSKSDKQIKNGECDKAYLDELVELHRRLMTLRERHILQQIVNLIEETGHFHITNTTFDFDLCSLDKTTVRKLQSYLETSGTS
# Out of some 350,000 compounds screened, about 1,600 (0.46%) were called active. Only results without a clear call are listed here; the source files them as inconclusive.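 Rule for the calls: active = every replicate reaching a set inhibition limit, whatever the replicate mean (cut at about 25% in these data); inconclusive = mean inhibition reaches that limit but some replicates miss it; inactive = the rest.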
# Target: Protein AF-9 (Homo sapiens) (UniProt P42568)
# Test: inhibitors of AF4 peptide binding to AF9, primary screen, biochemical, AlphaScreen, biotin-AF4 peptide, FLAG-AF9, single point (AID 651704);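 note: 0% = plate neutral control median and 100% = total signal loss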
# Details: at 10 µM, active compounds read high
row,Compound,inhibition
1,Cc1ccc(NCCc2c([N+](=O)[O-])cc([N+](=O)[O-])cc2[N+](=O)[O-])cc1,inconclusive: 24.6%
2,CN(CCCl)Cc1cc(Cl)c(NC2=NCCN2)c(Cl)c1,inconclusive: 22.2%
